Data on 27 molecules can be found in patent publication US9290490B2 (Merck Sharp & Dohme Corp., priority 2011, dated 2016).

Each structure is given as a SMILES string. Like-named read-outs stand apart in the source and are kept apart here.

For this assay, the target named is recombinant human GST-Syk (Homo sapiens (Human), UniProt P43405). The assay can be described thus: Homogeneous Time-Resolved Fluorescence (HTRF) Assay for the Recombinant Human Syk Enzyme. Format: biochemical. Particulars: read-out: rhSyk Activity (IC50), recombinant human GST-Syk 5 pM, ATP 25 μM. (In TR-FRET formats the signal depends on donor and acceptor labels being close together.)

One may read the IC50 as the concentration at which inhibition is half-maximal. As to `Cc1cc(Nc2nccc(C(F)(F)F)n2)cc(-c2cnc(C(O)([C@H]3CC[C@H](C(=O)O)CC3)C(F)(F)F)s2)c1` (single isomer, unassigned), the IC50 was below 0.1 µM. On the same count and under the same terms, as for `Cc1cc(Nc2nccc(C)n2)cc(-c2cnc(C(C)(O)C3CCC(C(=O)O)C(C)C3)s2)c1` (single isomer, unassigned), the figure is below 0.1 µM.

As to `Cc1cc(Nc2nccc(OC(C)C)n2)cc(-c2cnc(C(C)(O)[C@H]3CC[C@H](C(=O)O)CC3)s2)c1` (single isomer, unassigned), the concentration for half-maximal inhibition (IC50) (tested form: ammonium salt) was below 0.1 µM. On to `CC(C)C(O)(c1ncc(-c2cccc(Nc3nccc(C(F)(F)F)n3)c2)s1)[C@H]1CC[C@H](C(=O)O)CC1` (single isomer, unassigned), for which the 50% inhibitory concentration (IC50) was below 0.1 µM. Turning to `Cc1cc(Nc2nccc(C(F)(F)F)n2)cc(-c2cnc(C(C)(O)C3CC(CC(=O)O)C3(C)C)s2)c1` (single isomer, unassigned), the IC50 was below 0.1 µM.

In the case of `COc1nc(Nc2cc(C)cc(-c3cnc(C(C)(O)[C@H]4CC[C@H](C(=O)O)CC4)s3)c2)ncc1F` (single isomer, unassigned), for the setting “tested form: ammonium salt”, the IC50 was below 0.1 µM. On to `Cc1cc(Nc2nccc(C(F)(F)F)n2)cc(-c2cnc(C(F)[C@H]3CC[C@H](C(=O)O)CC3)s2)c1` (single isomer, unassigned), for which the IC50 (tested form: TFA) is below 0.1 µM. Take `COc1nc(Nc2cc(C)cc(-c3cnc(C(C)(O)[C@H]4CC[C@H](C(=O)O)CC4)s3)c2)ncc1Cl` (single isomer, unassigned): where the note is “tested form: ammonium salt”, the IC50 is below 0.1 µM. `Cc1cc(Nc2nccc(C(F)(F)F)n2)cc(-c2cnc(C(O)C3(O)CCC(C(=O)O)CC3)s2)c1` (single isomer, unassigned): the IC50 is below 0.1 µM. On the same count and under the same terms, the value for `Cc1cc(Nc2nccc(C(F)F)n2)cc(-c2cnc(C(C)(O)C3CCC(C(=O)O)C(C)C3)s2)c1` (single isomer, unassigned) was below 0.1 µM; that for `CCOC(=O)C1CCC(C(C)(O)c2ncc(-c3cc(C)cc(Nc4nccc(C(F)(F)F)n4)c3)s2)CC1C` (single isomer, unassigned) was 0.1 to 1 µM; that for `Cc1cc(Nc2nccc(C)n2)cc(-c2cnc(C(O)(CO)[C@H]3CC[C@H](C(=O)O)CC3)s2)c1` (single isomer, unassigned) was below 0.1 µM.

As for `CCC(O)(c1ncc(-c2cc(C)cc(Nc3nccc(C(F)(F)F)n3)c2)s1)[C@H]1CC[C@H](C(=O)O)CC1` (single isomer, unassigned), the concentration for half-maximal inhibition (IC50) was below 0.1 µM. On the same count and under the same terms, the value for `CCCCOC(=O)[C@H]1CC[C@H](C(C)(O)c2ncc(-c3cc(C)cc(Nc4nccc(C(F)F)n4)c3)s2)CC1` (single isomer, unassigned) was 0.1 to 1 µM. Same read-out and setting: as for `Cc1cc(Nc2nccc(C(F)(F)F)n2)cc(-c2cnc(C(O)(C(C)C)[C@H]3CC[C@H](C(=O)O)CC3)s2)c1` (single isomer, unassigned), the figure is below 0.1 µM.

On to `Cc1cc(Nc2nccc(C(F)(F)F)n2)cc(-c2cnc(C(O)(CO)[C@H]3CC[C@H](C(=O)O)CC3)s2)c1` (single isomer, unassigned), for which the IC50 is below 0.1 µM. As for `Cc1cc(Nc2nccc(C)n2)cc(-c2cnc(C(C)(O)[C@H]3CC[C@H](c4nn[nH]n4)CC3)s2)c1` (single isomer, unassigned), the IC50 (tested form: TFA) is below 0.1 µM. As to `Cc1cc(Nc2nccc(C(F)F)n2)cc(-c2cnc(C(O)([C@H]3CC[C@H](C(=O)O)CC3)C(F)(F)F)s2)c1` (single isomer, unassigned), the half-inhibitory concentration (IC50) was below 0.1 µM. As for `Cc1cc(Nc2nccc(C(F)(F)F)n2)cc(-c2cnc(C(C)(O)C3CC4C(C3)C4C(=O)O)s2)c1` (single isomer, unassigned), the concentration for half-maximal inhibition (IC50) (tested form: TFA) is below 0.1 µM.

With `Cc1cc(Nc2nccc(C(F)(F)F)n2)cc(-c2cnc(C(C)(O)C3CCC(C(=O)O)C(C)C3)s2)c1` (single isomer, unassigned), the IC50 is below 0.1 µM.

Turning to `Cc1cc(Nc2ncc(F)c(C)n2)cc(-c2cnc(C(C)(O)C3CC(CC(=O)O)C3(C)C)s2)c1` (single isomer, unassigned), the IC50 is below 0.1 µM. Still for that read-out and setting: the value for `CCC(O)(c1ncc(-c2cc(C)cc(Nc3nccc(C)n3)c2)s1)[C@H]1CC[C@H](C(=O)O)CC1` (single isomer, unassigned) was below 0.1 µM. The same measure, in the same setting: as for `Cc1cc(Nc2nccc(C)n2)cc(-c2cnc(C(C)(O)C3CC(CC(=O)O)C3(C)C)s2)c1` (single isomer, unassigned), the figure is below 0.1 µM; as for `Cc1cc(Nc2nccc(C)n2)cc(-c2cnc(C(C)(O)[C@H]3CC[C@@H](C(=O)O)[C@@H](C)C3)s2)c1` (single isomer, unassigned), below 0.1 µM. As for `Cc1cc(Nc2nccc(C(C)C)n2)cc(-c2cnc(C(C)(O)[C@H]3CC[C@H](C(=O)O)CC3)s2)c1` (single isomer, unassigned), under “tested form: ammonium salt”, the IC50 is below 0.1 µM.

As to `COc1ccnc(Nc2cc(C)cc(-c3cnc(C(C)(O)[C@H]4CC[C@H](C(=O)O)CC4)s3)c2)n1` (single isomer, unassigned), the half-maximal inhibitory concentration (IC50) (tested form: ammonium salt) is below 0.1 µM. In the case of `CCOC(=O)[C@@H]1CC[C@@H](C(C)(O)c2ncc(-c3cc(C)cc(Nc4nccc(C(F)(F)F)n4)c3)s2)C[C@@H]1C` (single isomer, unassigned), the IC50 was in the range of 0.1 to 1 µM.
